{"source": "paper PMC5681654", "about": "“Dual protein kinase and nucleoside kinase modulators for rationally designed polypharmacology” (Nature Communications, 2017)", "format_in_all_cases": "cell-based, human", "key": {"[1]": {"tested_on": "HRT18 (colon) cancer cell line", "experiment": "Cell proliferation assay (CellTiter-Blue), HRT18", "excerpt": "(§1) […]. […] The absorbance was read at 590 nm."}, "[2]": {"tested_on": "A549 (lung) cancer cell line", "experiment": "Cell proliferation assay (CellTiter-Blue), A549", "details": "gemcitabine 0−100 µM or masitinib 0−10 µM alone, 5 days", "excerpt": "as §1"}, "[3]": {"tested_on": "LNCaP (prostate) cancer cell line", "experiment": "Cell proliferation assay (CellTiter-Blue), LNCaP", "details": "gemcitabine 0−100 µM or masitinib 0−10 µM alone, 5 days", "excerpt": "as §1"}}, "data": [{"smiles": "Cc1ccc(NC(=O)c2ccc(CN3CCN(C)CC3)cc2)cc1Nc1nc(-c2cccnc2)cs1", "note": "[masitinib]", "values": [{"measurement": "anti-proliferative effect, single agent", "setting": "[1]; gemcitabine 0−100 µM or masitinib 0−10 µM alone, 5 days", "result": "only a slight anti-proliferative activity"}, {"measurement": "effect of adding masitinib to gemcitabine on viable cells", "setting": "[1]; masitinib 0, 2.5, 5, 10 µM, gemcitabine 0 to 100 µM", "result": "reduced the number of viable HRT18 cells"}, {"measurement": "anti-proliferative effect, single agent", "setting": "[2]", "result": "only a slight anti-proliferative activity"}, {"measurement": "anti-proliferative effect, single agent", "setting": "[3]", "result": "only a slight anti-proliferative activity"}]}]}
